Experiments:
[1] = biological target: T1, Human GIP R (Homo sapiens, UniProt P48546); assay: cAMP (HTRF) activity in CHO cells stably overexpressing GIP receptor; type: cell-based; details: EC50 of human GIP / EC50 of compound
T1 construct: expressed in transfected cells; host or cells: CHO
T1 sequence (P48546 22-466): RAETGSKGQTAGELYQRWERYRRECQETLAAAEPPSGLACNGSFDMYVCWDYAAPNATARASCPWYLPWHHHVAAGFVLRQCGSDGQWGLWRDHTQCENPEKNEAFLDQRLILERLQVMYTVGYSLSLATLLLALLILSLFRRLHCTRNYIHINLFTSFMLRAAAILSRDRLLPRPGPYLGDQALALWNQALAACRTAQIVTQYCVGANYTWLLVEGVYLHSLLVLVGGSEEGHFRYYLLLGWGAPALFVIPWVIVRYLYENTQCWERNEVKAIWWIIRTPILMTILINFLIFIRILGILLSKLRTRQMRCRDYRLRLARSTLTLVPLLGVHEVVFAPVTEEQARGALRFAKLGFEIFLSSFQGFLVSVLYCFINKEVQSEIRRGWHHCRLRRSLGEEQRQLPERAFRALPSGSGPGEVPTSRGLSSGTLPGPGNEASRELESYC
Protocol: (§1) By measuring the cAMP signal response levels of the aforementioned cells, the agonistic activity of individual compound towards the corresponding receptor was determined. The intracellular cAMP content was measured using reagent kit available from Cisbio Corp. based on HTRF (homogeneous time-resolved fluorescence) technology.
(§2) The cell fluid was transferred to 10 ml of HBSS for resuspension, and centrifuged at 1000 rpm for 5 minutes at room temperature.
(§3) 10 μL cell suspension was added to each well in the 384 well plate. […] Using the ECHO liquid transfer system, 100 nL of the prepared compound solution was added to the corresponding cell suspensions in the 384 well plate, rotated and shaken at 1000 rpm for 1 minute to mix evenly, and then incubated at room temperature for 60 minutes. 10 μL of detection reagent was added to each well after drug incubation was completed, and incubation was performed in the kit at room temperature for 60 minutes. […] GraphPad Prism 5 plotting software was used to create compound concentration response curves and EC50 (nM) values was calculated.

Sequences of proteins named here, by UniProt entry; tags and fusion partners are left off. Residues count along the entry.
UniProt P47871, 26-477: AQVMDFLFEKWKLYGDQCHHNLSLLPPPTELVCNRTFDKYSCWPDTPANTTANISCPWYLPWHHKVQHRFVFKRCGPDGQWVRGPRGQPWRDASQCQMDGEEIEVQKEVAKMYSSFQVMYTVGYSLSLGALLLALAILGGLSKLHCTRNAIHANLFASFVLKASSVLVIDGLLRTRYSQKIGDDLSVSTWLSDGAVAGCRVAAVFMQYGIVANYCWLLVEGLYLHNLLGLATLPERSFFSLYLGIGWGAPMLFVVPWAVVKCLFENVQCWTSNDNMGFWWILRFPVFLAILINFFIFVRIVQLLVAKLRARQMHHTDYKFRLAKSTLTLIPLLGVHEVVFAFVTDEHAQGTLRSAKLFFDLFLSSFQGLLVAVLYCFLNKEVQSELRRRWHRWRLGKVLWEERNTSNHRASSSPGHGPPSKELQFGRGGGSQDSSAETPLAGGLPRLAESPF
UniProt P43220, 24-463: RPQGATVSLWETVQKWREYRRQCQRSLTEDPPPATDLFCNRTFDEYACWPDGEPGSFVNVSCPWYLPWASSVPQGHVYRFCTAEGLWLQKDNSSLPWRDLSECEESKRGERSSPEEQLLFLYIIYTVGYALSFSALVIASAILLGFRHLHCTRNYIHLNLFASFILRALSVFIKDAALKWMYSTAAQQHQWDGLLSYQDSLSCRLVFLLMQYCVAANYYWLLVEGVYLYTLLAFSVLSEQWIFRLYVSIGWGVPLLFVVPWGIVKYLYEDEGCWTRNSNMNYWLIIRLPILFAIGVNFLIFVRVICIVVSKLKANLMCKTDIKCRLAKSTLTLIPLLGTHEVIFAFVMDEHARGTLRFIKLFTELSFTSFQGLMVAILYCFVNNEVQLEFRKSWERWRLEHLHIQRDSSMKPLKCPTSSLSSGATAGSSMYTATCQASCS

[2] = biological target: T2, Human GCG R (Homo sapiens, UniProt P47871); assay: cAMP (HTRF) activity in HEK-293 cells stably overexpressing human GCG receptor; type: cell-based; details: EC50 of human GCG / EC50 of compound
T2 construct: expressed in transfected cells; host or cells: HEK-293
Protocol: as §1, §2, §3

[3] = test system: RIN-m5F cells; type: cell-based, rat; details: relative to GLP-1(7-37)
Protocol: This experiment measured the cAMP level produced by the compound on RIN-mF cells.
Frozen […] cells were placed in a 37° C. constant temperature water bath for rapid thawing and recovery. The cell solution was transferred to 10 ml of HBSS for resuspension, and centrifuged at 1000 rpm for 5 minutes at room temperature.
(§4) 10 μL cell suspension was added to each well in the 384 well plate. […] Using the ECHO liquid transfer system, 100 nL of the prepared compound solution was added to the corresponding cell suspensions in the 384 well plate, rotated and shaken at 1000 rpm for 1 minute to mix evenly, and then incubated at room temperature for 60 minutes. 10 μL of detection reagent was added to each wells after drug incubation was completed, and incubation was performed for 60 minutes.

[4] = test system: 3T3-L1 adipocytes; details: relative to GIP
Protocol: Mouse 3T3-L1 precursor adipocytes can be induced to differentiate into mature adipocytes. […] After the cells became full and contacted with each other, DMEM differentiation medium containing 20% FBS, 0.5 mM IBMX, 0.4 ug/mL dexamethasone, and 5 ug/mL insulin was used to induce differentiation of 3T3-L1 adipocyte. After 5 days of induction and cultivation, DMEM medium containing […], 4 ug/ml insulin, and 10 uM rosiglitazone was used to continue induction and cultivation for 3 days. Then, DMEM medium containing 10% FBS was used to continue cultivation for 2-3 days to induce mature 3T3-L1 adipocytes.
The cAMP level produced by the compound on 3T3-L1 adipocytes was determined in this experiment. The tested compound solution was diluted step by step according to a concentration gradient of 3 times, to obtain a total of 10 series of concentration solutions. The solutions were added to induced mature 3T3-L1 adipocytes and incubated at room temperature for 60 minutes. 10 μL detection reagent in the kit was added to each well after drug incubation, and incubated at room temperature for another 60 minutes. […] GraphPad Prism 5 plotting software was used to create compound concentration-effect curves and calculation was performed.

[5] = test system: human primary liver cells; type: cell-based; details: relative to GCG
Protocol: The cAMP levels produced by compounds on human primary liver cells were determined in this experiment. Human primary liver cells were purchased from Lonza (cell product number HUCPG).
Frozen human primary liver cells were placed in a 37° C. constant temperature water bath for rapid thawing and recovery. The cell solution was transferred to 10 ml of HBSS for resuspension, and centrifuged at 1000 rpm for 5 minutes at room temperature.
as §4, with “well” for “wells”

[6] = biological target: Human GLP-1R (Homo sapiens, UniProt P43220); assay: cAMP (HTRF) activity in HEK-293 cells stably overexpressing human GLP-1 receptor; type: cell-based; parameters: expressed in transfected cells; host or cells: HEK-293; details: EC50 of human GLP-1 (7-37) / EC50 of compound
Protocol: as §1, §2, §3

Human GIP R Rel. A (Relative Activity) [1]: 2585.71% | Human GCG R Rel. A (Relative Activity) [2]: 219.23% | Human GLP-1R Rel. A (Relative Activity) [6]: 880.00%
Structure (SMILES): CC[C@H](C)[C@H](NC(=O)[C@H](Cc1ccccc1)NC(=O)[C@H](C)NC(=O)C(C)(C)NC(=O)[C@H](CCC(N)=O)NC(=O)[C@H](C)NC(=O)[C@H](CCCCNC(=O)COCCOCCNC(=O)COCCOCCNC(=O)CC[C@H](NC(=O)CCCCCCCCCCCCCCCCCCC(=O)O)C(=O)O)NC(=O)[C@H](CCCCN)NC(=O)[C@H](CC(=O)O)NC(=O)[C@H](CC(C)C)NC(=O)[C@](C)(CC(C)C)NC(=O)[C@@H](NC(=O)[C@H](CO)NC(=O)[C@H](Cc1ccc(O)cc1)NC(=O)[C@H](CC(=O)O)NC(=O)[C@H](CO)NC(=O)[C@@H](NC(=O)[C@](C)(Cc1ccccc1F)NC(=O)[C@@H](NC(=O)CNC(=O)[C@H](CCC(N)=O)NC(=O)C(C)(C)NC(=O)[C@@H](N)Cc1ccc(O)cc1)[C@@H](C)O)[C@@H](C)O)[C@@H](C)CC)C(=O)N[C@@H](CCC(=O)O)C(=O)N[C@@H](Cc1ccccc1)C(=O)N[C@@H](CC(C)C)C(=O)N[C@@H](CC(C)C)C(=O)N[C@@H](CCC(=O)O)C(=O)NCC(=O)NCC(=O)N1CCC[C@H]1C(=O)N[C@@H](CO)C(=O)N[C@@H](CO)C(=O)NC(C)(C)C(=O)N[C@@H](Cc1c[nH]cn1)C(=O)N1CCC[C@H]1C(=O)N1CCC[C@H]1C(=O)N1CCC[C@H]1C(=O)N[C@@H](CO)C(N)=O [Compound 24]
Rel. A (Relative Activity) on RIN-m5F [3]: 1075.00% | Rel. A (Relative Activity) on 3T3-L1 adipocyte [4]: 948.13% | Rel. A (Relative Activity) on human primary liver cells [5]: 1389.64%

From patent US20250129135A1, “Multi-Agonist and Use Thereof” (priority 2021, published 2025)
